Earlier results as cited in PubChem BioAssay AID977610.

Legend:
Experiment in all cases: PubChem AID 977610
[1] = molecular target: chorismate mutase; conditions: PDB protein-ligand complexes, literature Ki; protein: chorismate mutase; PDB entry 2CSM
[2] = molecular target: arginase 1; conditions: PDB protein-ligand complexes, literature Ki; protein: arginase 1; PDB entry 1HQG
[3] = molecular target: l-arginine glycine amidinotransferase; conditions: PDB protein-ligand complexes, literature Ki; protein: l-arginine glycine amidinotransferase; PDB entry 3JDW
[4] = molecular target: carboxypeptidase a; conditions: PDB protein-ligand complexes, literature Ki; protein: carboxypeptidase a; PDB entry 1CBX
[5] = molecular target: serine carboxypeptidase ii; conditions: PDB protein-ligand complexes, literature Ki; protein: serine carboxypeptidase ii; PDB entry 1WHT
[6] = molecular target: Replicase polyprotein 1ab; conditions: PDB protein-ligand complexes, literature Ki; protein: Replicase polyprotein 1ab; PDB entry 2Z9G
[7] = molecular target: Sucrose isomerase; conditions: PDB protein-ligand complexes, literature Ki; protein: Sucrose isomerase; PDB entry 2PWG
[8] = molecular target: ctp synthase; conditions: PDB protein-ligand complexes, literature Ki; protein: ctp synthase; PDB entry 2AD5
[9] = molecular target: Tricomonas vaginalis purine nucleoside phosphorylase(TvPNP); conditions: PDB protein-ligand complexes, literature Ki; protein: Tricomonas vaginalis purine nucleoside phosphorylase(TvPNP); PDB entry 2I4T
[10] = molecular target: chymotrypsin alpha; conditions: PDB protein-ligand complexes, literature Ki; protein: chymotrypsin alpha; PDB entry 6CHA
[11] = molecular target: beta-lactamase ctx-m-9a; conditions: PDB protein-ligand complexes, literature Ki; protein: beta-lactamase ctx-m-9a; PDB entry 1YM1
[12] = molecular target: beta-lactamase tem; conditions: PDB protein-ligand complexes, literature Ki; protein: beta-lactamase tem; PDB entry 1NXY
[13] = molecular target: beta-lactamase; conditions: PDB protein-ligand complexes, literature Ki; protein: beta-lactamase; PDB entry 1PI5
[14] = molecular target: methionine aminopeptidase; conditions: PDB protein-ligand complexes, literature Ki; protein: methionine aminopeptidase; PDB entry 1YVM
[15] = molecular target: Glutamate receptor, ionotropic kainate 1; conditions: PDB protein-ligand complexes, literature Ki; protein: Glutamate receptor, ionotropic kainate 1; PDB entry 2PBW
[16] = molecular target: histamine n-methyltransferase; conditions: PDB protein-ligand complexes, literature Ki; protein: histamine n-methyltransferase; PDB entry 2AOU
[17] = molecular target: OROTIDINE 5-PHOSPHATE DECARBOXYLASE; conditions: PDB protein-ligand complexes, literature Ki; protein: OROTIDINE 5-PHOSPHATE DECARBOXYLASE; PDB entry 1JJK
[18] = molecular target: orotidine 5'-monophosphate decarboxylase; conditions: PDB protein-ligand complexes, literature Ki, protein: orotidine 5'-monophosphate decarboxylase
[19] = molecular target: mannose-binding protein-c; conditions: PDB protein-ligand complexes, literature Ki; protein: mannose-binding protein-c; PDB entry 1RDN
[20] = molecular target: Casein kinase II subunit alpha; conditions: PDB protein-ligand complexes, literature Ki; protein: Casein kinase II subunit alpha; PDB entry 2OXY
[21] = molecular target: glutamate receptor 2; conditions: PDB protein-ligand complexes, literature Ki; protein: glutamate receptor 2; PDB entry 1XHY
[22] = molecular target: Estrogen receptor alpha; conditions: PDB protein-ligand complexes, literature Ki; protein: Estrogen receptor alpha; PDB entry 2POG
[23] = molecular target: chloramphenicol acetyltransferase iii; conditions: PDB protein-ligand complexes, literature Ki; protein: chloramphenicol acetyltransferase iii; PDB entry 1QCA
[24] = molecular target: isopentenyl diphosphate delta-isomerase; conditions: PDB protein-ligand complexes, literature Ki; protein: isopentenyl diphosphate delta-isomerase; PDB entry 1Q54
[25] = molecular target: 5(3)-deoxyribonucleotidase; conditions: PDB protein-ligand complexes, literature Ki; protein: 5(3)-deoxyribonucleotidase; PDB entry 1Q91
[26] = molecular target: pol polyprotein; conditions: PDB protein-ligand complexes, literature Ki; protein: pol polyprotein; PDB entry 2AOE

N[C@@H](Cc1ccc(O)cc1)C(=O)O
Ki [1]: 50 µM

NCCC[C@H](N)C(=O)O
Ki [2]: 1000 µM
Ki [3]: 253 µM

O=C(O)C[C@@H](Cc1ccccc1)C(=O)O
Ki [4]: 0.45 µM
Ki [5]: 200 µM

c1ccccc1
Ki [6]: 0.7 µM

O[C@H]1[C@H](O)[C@@H](O)CN2CC[C@H](O)[C@H]12
Ki [7]: 15 µM

Nc1ccn([C@@H]2O[C@H](COP(=O)(O)OP(=O)(O)OP(=O)(O)O)[C@@H](O)[C@H]2O)c(=O)n1
Ki [8]: 110 µM

Nc1ncnc2c([C@@H]3N[C@H](CO)[C@@H](O)[C@H]3O)c[nH]c12
Ki [9]: 0.001 µM

[Al][CH2]Cc1ccccc1
Ki [10]: 40 µM

O=C(Cc1cccs1)N[C@H]([Al])c1cccc(C(=O)O)c1
Ki [11]: 0.578 µM
Ki [12]: 0.064 µM
Ki [13]: 0.017 µM

c1ccc2[nH]c(-c3cscn3)nc2c1
Ki [14]: 0.4 µM

C/C(=C/C=C/[C@@H](C)C(=O)O)[C@H]1CN[C@H](C(=O)O)[C@H]1CC(=O)O
Ki [15]: 0.00556 µM

CCN(CC)Cc1cc(Nc2ccnc3cc(Cl)ccc23)ccc1O
Ki [16]: 0.0186 µM

O=c1cc(O)n([C@@H]2O[C@H](COP(=O)(O)O)[C@@H](O)[C@H]2O)c(=O)[nH]1
Ki [17]: 8.8 pM
Ki ([18]; PDB entry 1DQX): 9 pM
Ki ([18]; PDB entry 1EIX): 8.8 pM
Ki ([18]; PDB entry 1LOR): 8.8 pM

CC(=O)N[C@@H]1[C@@H](O)[C@H](O)[C@@H](CO)O[C@@H]1O
Ki [19]: 14400 µM

Brc1c(Br)c(Br)c2[nH]cnc2c1Br
Ki [20]: 0.3 µM

CC(C)[C@H]1CN[C@H](C(=O)O)[C@H]1CC(=O)O
Ki [21]: 0.662 µM

Oc1ccc([C@@H]2Oc3cccc(O)c3[C@@H]3CCC[C@@H]32)cc1
Ki [22]: 0.00029 µM

CC(=O)O[C@H]1C[C@@]2(C)[C@@H](C[C@@H](O)[C@H]3[C@@]4(C)CC[C@@H](O)[C@@H](C)[C@@H]4CC[C@@]32C)/C1=C(\CCC=C(C)C)C(=O)O
Ki [23]: 5.4 µM

C[C@](O)(CBr)CCOP(=O)(O)OP(=O)(O)O
Ki [24]: 1.4 µM

Cc1cn([C@H]2C[C@H]3O[C@](c4ccccc4)(P(=O)(O)O)OC[C@H]3O2)c(=O)[nH]c1=O
Ki [25]: 70 µM

CCCC[C@H](NC(=O)[C@H](C)NC(=O)[C@H](CCC(=O)O)NC(=O)[C@H](Cc1ccccc1)NC[C@H](CC(C)C)NC(=O)[C@@H](NC(=O)[C@@H](N)CCCN=C(N)N)C(C)C)C(N)=O
Ki [26]: 0.024 µM
